According to patent publication US11396531B2, “Antimicrobial peptides comprising epsilon lysine residues” (priority 2016, dated 2022):

Columns and labels:
[1] = test system: P. aeruginosa; type: cell-based, Pseudomonas aeruginosa; details: for MIC against P. aeruginosa (n = 5): Table 4, range over 5 strains
Method: (§1) MIC of cationic polymers and polypeptide were tested in accordance with the Clinical and Laboratory Standards Institute (CLSI) guidelines against a panel of antibiotic-susceptible/-resistant bacteria, yeasts and fungal strains. Bacterial and yeast strains were cultured on tryptic soy agar (TSA) and Sabaroud dextrose agar (SDA) plates (Neogen Corporation, MI, USA) overnight respectively. Inocula in Mueller-Hinton broth (MHB) for bacteria and SD broth for C. albicans (Beckton Dickinson, MD, USA) were prepared at 0.5 McFarland. The suspensions were then diluted to a final concentration of 10^5 CFU/ml in a 96-well microtitre plate (SPL Life Sciences Co., Ltd, Korea). Polymers and polypeptides were added to the inoculum in 2-fold serial dilutions to give a range of concentrations from 2-1024 μg/ml. […] The antimicrobial activities were compared with topical antiseptic agents, BAK and CHX. A similar protocol was used to determine the MIC of εPL against antibiotic-resistant pathogens. MIC of the polymers and polypeptides against Fusarium strains was determined in full strength RPMI-1640 buffer. Fungal spores were recovered from a 5-day old culture on a potato dextrose agar and diluted to a concentration of 10^5 spores/ml in 0.9% saline solution. A further 50-fold dilution was done in RPMI-1640 buffer and 100 μl of the inoculum was added to 96 well plates containing an equal volume of test peptides at 2-fold serial dilutions. 200 μl of inoculum without any additives and buffer alone served as positive and negative controls, respectively. The plate was then incubated at 30° C. for 48 h. The absorbance value was measured at 600 nm as before and the lowest concentration of the peptide which inhibited 90% growth was reported. All MIC determinations were performed in duplicates.
(§2) MICs of polymers/antibiotics were determined using the microdilution method in 96 well microtitre plates (SPL Life Sciences Co., Ltd, Korea), following the guidelines of Clinical and Laboratory Standards Institute (CLSI) document M100-S18. Briefly, polymers (1-512 μg/ml) or antibiotics were dissolved in appropriate media (Mueller Hinton broth, MHB for bacteria; Sabaroud's Dextrose (SD) broth for yeasts and RPMI buffer for Fusarium strains) and 100 μl of this was then mixed with an equal volume of microbial inoculum (OD600=˜0.08) in the same media and shaken in a closed incubator.

[2] = test system: C. parapsilosis; details: C. parpsilosis (n = 9), Table 5
Method: as §1, with “Korea).” for “Korea). Polymers and polypeptides were added to the inoculum in 2-fold serial dilutions to give a range of concentrations from 2-1024 μg/ml.”
as §2

[3] = test system: B. cereus ATCC 11778; details: B. cereus ATCC 11778, Table 5
Method: as §1, with “Korea).” for “Korea). Polymers and polypeptides were added to the inoculum in 2-fold serial dilutions to give a range of concentrations from 2-1024 μg/ml.”
as §2

[4] = test system: Carbapenam-resistant Enterobacter strains (CRE); details: CRE (n = 19 strains), Table 5; for MIC50: 50% of strains susceptible; for MIC: range
Method: as §1, with “Korea).” for “Korea). Polymers and polypeptides were added to the inoculum in 2-fold serial dilutions to give a range of concentrations from 2-1024 μg/ml.”
as §2

[5] = test system: E. cloacae complex
Method: as §1, with “Korea).” for “Korea). Polymers and polypeptides were added to the inoculum in 2-fold serial dilutions to give a range of concentrations from 2-1024 μg/ml.”
as §2

[6] = test system: Vancomycin-resistant Enterococcus (VRE); details: VRE (n = 21 strains), Table 5; for MIC90: 90% of strains susceptible; for MIC: range
Method: as §1, with “Korea).” for “Korea). Polymers and polypeptides were added to the inoculum in 2-fold serial dilutions to give a range of concentrations from 2-1024 μg/ml.”
as §2

[7] = test system: C. albicans; details: for MIC: C. albicans (n = 5), Table 5; for MIC against C. albicans (n = 5): Table 4, range over 5 strains
Method: as §1, with “Korea).” for “Korea). Polymers and polypeptides were added to the inoculum in 2-fold serial dilutions to give a range of concentrations from 2-1024 μg/ml.”
as §2

[8] = test system: S. epidermidis 12228; details: S. epidermidis 12228, Table 5
Method: as §1, with “Korea).” for “Korea). Polymers and polypeptides were added to the inoculum in 2-fold serial dilutions to give a range of concentrations from 2-1024 μg/ml.”
as §2

[9] = test system: B. subtilis ATCC 6633; details: B. subtilis ATCC 6633, Table 5
Method: as §1, with “Korea).” for “Korea). Polymers and polypeptides were added to the inoculum in 2-fold serial dilutions to give a range of concentrations from 2-1024 μg/ml.”
as §2

[10] = test system: C. tropicalis; details: C. tropicalis (n = 9), Table 5
Method: as §1, with “Korea).” for “Korea). Polymers and polypeptides were added to the inoculum in 2-fold serial dilutions to give a range of concentrations from 2-1024 μg/ml.”
as §2

[11] = test system: A. baumannii; details: A. baumannii (n = 10), Table 5; for MIC90: 90% of strains susceptible; for MIC: range
Method: as §1, with “Korea).” for “Korea). Polymers and polypeptides were added to the inoculum in 2-fold serial dilutions to give a range of concentrations from 2-1024 μg/ml.”
as §2

[12] = test system: human primary blood T-cell lymphocytes (PBTL); test: Cytokine determination by ELISA (immunogenicity); type: cell-based; details: 62.5 and 125 μg/ml, 24 h
Method: The cells were exposed to peptides (62.5 and 125 μg/ml) and the amounts of Interleukins-2, -4 and 5 (IL-2, IL-4 and IL-5) and Interferon γ (IFNγ) were quantitatively determined by Enzyme-linked immunosorbent assay (ELISA). Mitogenic plant lectin phytohaemagglutinin (PHA) was used as a positive controls.

[13] = test system: S. aureus or MRSA; type: cell-based, Staphylococcus aureus; details: for MIC against S. aureus or MRSA (n = 5): Table 4, range over 5 strains
Method: as §1, §2

[14] = E. cloacae complex 6780, Table 5
[15] = E. cloacae complex 44095, Table 5

SMILES | fold increase in GM-MIC versus melittin ([1]; P. aeruginosa strains) | MIC against P. aeruginosa (n = 5) [1] | MIC [2] | MIC [3] | MIC50 [4] | MIC [4] | MIC [5, 14] | MIC [5, 15] | MIC90 [6] | MIC [6] | MIC [7] | MIC against C. albicans (n = 5) [7] | MIC [8] | MIC [9] | MIC [10] | MIC90 [11] | MIC [11] | cytokine production (IL-2, IL-4, IL-5, IFNγ) from PBTLs [12] | fold increase in the MIC values versus melittin ([13]; S. aureus strains) | MIC against S. aureus or MRSA (n = 5) [13]
CC[C@H](C)[C@H](NC(=O)CN)C(=O)NCC(=O)N[C@@H](C)C(=O)N[C@H](C(=O)N[C@@H](CC(C)C)C(=O)NCCCC[C@H](N)C(=O)N[C@H](C(=O)N[C@@H](CC(C)C)C(=O)N[C@H](C(=O)N[C@H](C(=O)NCC(=O)N[C@@H](CC(C)C)C(=O)N1CCC[C@H]1C(=O)N[C@@H](C)C(=O)N[C@@H](CC(C)C)C(=O)N[C@H](C(=O)N[C@@H](CO)C(=O)N[C@@H](Cc1c[nH]c2ccccc12)C(=O)N[C@H](C(=O)NCCCC[C@H](N)C(=O)N[C@@H](CCCNC(=N)N)C(=O)NCCCC[C@H](N)C(=O)N[C@@H](CCCNC(=N)N)C(=O)N[C@@H](CCC(N)=O)C(=O)N[C@@H](CCC(N)=O)C(N)=O)[C@@H](C)CC)[C@@H](C)CC)[C@@H](C)O)[C@@H](C)O)C(C)C)C(C)C [Peptide 4] | 3 fold | 16 to 64 mg/L | 8 to 64 mg/L | 4 mg/L (≈ 1.41 µM) | (MIC50 = 16) μg/ml | 8 to 64 mg/L | 4 mg/L (≈ 1.41 µM) | 8 mg/L (≈ 2.81 µM) | (MIC90 = 8) μg/ml | 4 to 16 mg/L | 4 to 8 mg/L | 4 to 8 mg/L | 4 mg/L (≈ 1.41 µM) | 8 mg/L (≈ 2.81 µM) | 1 to 32 mg/L | (MIC90 = 8) μg/ml | 4 to 8 mg/L | no apparent induction of cytokine production | 4-32 fold | 32 to 128 mg/L
CC[C@H](C)[C@H](NC(=O)CN)C(=O)NCC(=O)N[C@@H](C)C(=O)N[C@H](C(=O)N[C@@H](CC(C)C)C(=O)NCCCC[C@H](N)C(=O)N[C@H](C(=O)N[C@@H](CC(C)C)C(=O)N[C@H](C(=O)N[C@H](C(=O)NCC(=O)N[C@@H](CC(C)C)C(=O)N1CCC[C@H]1C(=O)N[C@@H](C)C(=O)N[C@@H](CC(C)C)C(=O)N[C@H](C(=O)N[C@@H](CO)C(=O)N[C@@H](Cc1c[nH]c2ccccc12)C(=O)N[C@H](C(=O)N[C@@H](CCCCN)C(=O)N[C@@H](CCCNC(=N)N)C(=O)N[C@@H](CCCCN)C(=O)N[C@@H](CCCNC(=N)N)C(=O)N[C@@H](CCC(N)=O)C(=O)N[C@@H](CCC(N)=O)C(N)=O)[C@@H](C)CC)[C@@H](C)CC)[C@@H](C)O)[C@@H](C)O)C(C)C)C(C)C [Peptide 3] | – | 16 to 32 mg/L | 16 to 64 mg/L | 4 mg/L (≈ 1.41 µM) | (MIC50 = 8) μg/ml | 8 to 64 mg/L | 4 mg/L (≈ 1.41 µM) | 8 mg/L (≈ 2.81 µM) | (MIC90 = 8) μg/ml | 4 to 8 mg/L | 4 to 8 mg/L | 4 to 8 mg/L | 4 mg/L (≈ 1.41 µM) | 8 mg/L (≈ 2.81 µM) | 1 to 32 mg/L | (MIC90 = 4) μg/ml | 2 to 4 mg/L | no apparent induction of cytokine production | – | 8 to 32 mg/L

Values after ≈ are worked out from the molar mass of the structure shown. Read-outs that look alike come from different tables or passages of the source.
